Results on one molecule are retold here after publication PMC12658643, “Effects of Ligand N and O Donor Content on the Structure, Aqueous Stability, and SOD Activity of a Series of Mn^2+ Complexes with Pyridine-Containing Tripodal Ligands” (ACS Omega, 2025).

SMILES strings stand for the structures. Only a part of the results on these compounds is given; other tests are left out.

Series [1] is described as follows: Potentiometric titration of the acidified ligands (protonation constants). To be noted: I = 0.10 M KCl.
Series [2] in a line: Potentiometric titration of the ligands in the presence of MnCl2 (stability of [MnL]^2+ complex, speciation). As to conditions: conditions of the titration. As for the experimental part: Titrations were performed using a Thermo Scientific OrionStar T910 automatic titrator equipped with a Ross Orion 8102BNUWP pH electrode. Electrode calibration was performed prior to each experiment using the GLEE method. The electrode standard potential and slope were used to convert millivolt readings from each titration into pH values. An air-sealed, jacketed titration vessel was employed, equipped with ports for titrant addition, nitrogen gas, and the pH probe. Temperature was maintained at 25.0 ± 0.1 °C with a temperature-controlled, circulating water bath. […]
Reagent stock solutions were prepared in DI H2O (18 MΩ cm^–1). […] The concentration of MnCl2(aq) stock (0.1043 M) was determined by titration with commercially standardized ethylenediaminetetraacetic acid (EDTA) using Eriochrome black T indicator. […] The NaOH stock concentrations of either 0.0100 or 0.0500 M were determined by titrating them in triplicate against the standardized HCl solution.
The quantities of ligand, HCl, and MnCl2, and concentrations of KCl and NaOH titrant used for each experiment are given in the Supporting Information (Table S34). These quantities were chosen to produce optimum titration curves for the analysis of Mn^2+ complex of each ligand. For a typical experiment, the appropriate quantities of ligand and HCl were added to the titration vessel along with enough DI H2O to give 40 mL of solution. […]

Turning to `OCCN(CCO)CCO`, the “Log βLH1 (protonation constant of the ligand)” value in series [1] (t = 25 °C) is recorded as 7.783(4). In addition, in series [1] (Table S35, t = 25°C), the “Log Ka1” value was 7.783(4). In addition, in series [2], the “Mn^2+ complex formation in aqueous solution” value was “does not form stable Mn^2+ complexes in aqueous solution”.
